Source: paper PMC5094908 (Journal of applied toxicology : JAT, 2016)

Tests used:
[1] = tested on: SH-SY5Y and dSH-SY5Y cells

Substance: Ziram
- cytotoxic sensitivity of dSH-SY5Y cells relative to SH-SY5Y cells [1]: more sensitive
- cytotoxic sensitivity ([ATP] IC50) of LUHMES and/or dLUHMES relative to the other cell lines (LUHMES and dLUHMES cells): more sensitive than the other cell lines
- relative cytotoxic sensitivity of LUHMES versus dLUHMES cells (LUHMES and dLUHMES cells): dLUHMES cells were markedly more sensitive than LUHMES cells
- relative cytotoxic sensitivity of NSC versus dNSC (NSC and dNSC cells): the converse was true
